Test results published in PubChem BioAssay AID1970 (National Center for Advancing Translational Sciences (NCATS), 2009).
The entries are a selection whose mix differs from that of the whole data set. Results filed as inconclusive are left out. Calls of active or inactive are those of the source. Calls follow the shape of the dose curve; as a rule, active = well fitted inhibition curve with a large enough effect; inconclusive = small, poorly fitted or top-dose-only effect; inactive = flat fitted curve, though single readings scatter.

Amino acid sequences for entries named in this document (tags omitted). A change or cut given only in a name is not applied to a line headed by its entry.
UniProt Q9HAZ1: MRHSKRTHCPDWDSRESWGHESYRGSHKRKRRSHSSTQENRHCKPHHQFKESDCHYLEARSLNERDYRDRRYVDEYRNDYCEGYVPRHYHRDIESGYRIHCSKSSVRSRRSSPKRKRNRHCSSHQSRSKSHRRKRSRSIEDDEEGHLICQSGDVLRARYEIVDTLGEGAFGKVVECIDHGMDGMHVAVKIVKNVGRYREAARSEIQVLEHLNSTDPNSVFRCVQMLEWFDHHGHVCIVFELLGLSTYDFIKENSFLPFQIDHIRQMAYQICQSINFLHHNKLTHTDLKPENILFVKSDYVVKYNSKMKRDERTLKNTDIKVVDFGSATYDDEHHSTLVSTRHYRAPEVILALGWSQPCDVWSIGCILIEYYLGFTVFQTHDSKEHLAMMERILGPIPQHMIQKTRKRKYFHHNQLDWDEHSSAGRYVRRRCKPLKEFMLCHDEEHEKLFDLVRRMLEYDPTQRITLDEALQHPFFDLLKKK

Target: Dual specificity protein kinase CLK4 (Homo sapiens) (UniProt Q9HAZ1)
Experiment: Confirmation Assay for Inhibitors of CDC-like Kinase 4 (Kinase-Glo Assay)
Details: recombinant Clk4, Kinase-Glo ATP depletion luminescence
Protocol: NIH Molecular Libraries Probe Production Centers Network [MLPCN] NIH Chemical Genomics Center [NCGC] MLPCN Grant: 1R03MH084827-01 Assay Submitter (PI): Tom Misteli NCGC Assay Overview: Clk4 (Invitrogen, cat# PV3839) was assayed using ATP and the RS repeat peptide (AnaSpec cat # 61722) as substrates. Following the Clk4 reaction, the remaining ATP levels were detected using Promega Kinase-Glo technology wherein the remaining ATP from the kinase reaction is detected using Ultra-Glo luciferase and D-luciferin which generates a bioluminescence signal from the ATP. The positive control for the assay was TG003 (Sigma-Aldrich, cat# 300801-52-9) which has been described as an inhibitor of Clk 4[1].
NCGC Assay Protocol Summary: Two uL/well of substrate-buffer solution (100 uM RS peptide, 1 uM ATP, 25 mM Tris pH7.5, 10 mM MgCl2, 0.5 mM EGTA, 2.5 mM DTT, 0.01% Triton X-100 final concentration) was dispensed into 1536-well, assay plates (Greiner, solid white medium-binding plates) with Aurora Discovery BioRAPTR Flying Reagent Dispenser (FRD; Beckton-Dickenson). Using a Kalypsys pin tool equipped with a 1536-pin tool, 23 nL of compound solution was transferred to the assay plate. […] Luminescence was detected with the ViewLux plate reader (Perkin Elmer, Waltham, MA) after 5 min incubation using a 5 second exposure time and 2x binning.

For `CCN1/C(=C/C(C)=O)Sc2ccc(OC)cc21`, the Potency was active: 0.0336 µM.
